## scFv variants of Ab-14 (heavy chain) against a SARS-CoV-2 spike peptide

Data: MIT Lincoln Laboratory AlphaSeq set, Li et al. 2023, doi:10.1038/s41467-023-39022-2, as distributed in FLAb.

The target is the same throughout: PDVDLGDISGINAS, from the HR2 region of SARS-CoV-2 spike.

Ab-14 is the parent antibody, in scFv form: VH, then the linker GGGGSGGGGSGGGGS, then VL. The light chain is unchanged in all variants.
VH: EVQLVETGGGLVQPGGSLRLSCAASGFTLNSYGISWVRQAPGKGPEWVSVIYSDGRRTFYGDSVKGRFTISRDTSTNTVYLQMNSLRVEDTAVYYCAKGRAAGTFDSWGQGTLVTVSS
VL: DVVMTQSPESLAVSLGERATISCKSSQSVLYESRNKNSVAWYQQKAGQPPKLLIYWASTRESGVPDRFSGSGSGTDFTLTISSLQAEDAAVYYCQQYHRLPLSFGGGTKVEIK

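The starting antibody came from a phage panning campaign against this peptide. The variants were designed computationally from a first round of random CDR variants and then made and measured. Group labels follow the data file (Ctrl: baseline library sampled from a position-specific scoring matrix, with some repeated check sequences; Rand: our label for a block that the file lists under HC and that is probably the random mutants of the ten best first-round binders; GP: Gaussian process model; GPLM: also part of the Gaussian process libraries; HC: hill climbing; Gen: genetic algorithm; Gibbs: Gibbs sampling; a sequence that several methods proposed may carry one label only). The scFvs were displayed on barcoded MATa yeast, the peptide on MATalpha yeast. Mating (16 h, 30 °C) was followed by selection of diploids and sequencing of their barcodes. The ratio of observed to expected reads was calibrated, replicate by replicate, on BCL2-family standards whose Kd was known from biolayer interferometry. There are six technical replicates.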

Changes read parent residue, position, new residue, counted from the first residue of the VH shown.
This list holds designs with at most six substitutions.
The Kd shown is the geometric mean over detected replicates; a lower Kd is a better binder.
"nd" means that the variant was in the library but no mating with the target was seen in any replicate; the authors take this as a sign of poor binding, and no number exists.
Empty control strains, which show no peptide, gave a signal in 1% of pairings with all heavy chain designs; the median was 120 nM and 95% of these signals were weaker than 7.0 nM. No background was subtracted. Also given: how often the same scFv was detected with the empty control strains.
The authors averaged sequences with at least three values out of six and counted those with two or fewer as poor binders.
Values of this round are not directly comparable with the first-round values of the same sequences.
A sequence that the file lists under several names has all its replicates pooled.

Variant F27Y+G61S+D106P [Ctrl] showed nd (0 of 6 replicates; controls 0 of 18). For T28D+S31E+F59M+A101C [GP_HC], the assay gave 3.0 nM (5 of 6 replicates; controls 0 of 18). With T28D+R100Q+S107L [GPLM_Gibbs] the result was 1.2 nM (6 of 6 replicates; controls 0 of 18). Variant T28D+S63D+A101T+S107T [GP_Gibbs] gave 600 pM (6 of 6 replicates; controls 0 of 18). For F27D+N30L+S63Q [Ctrl], the assay gave 25 nM (1 of 6 replicates; controls 1 of 18). Variant S31E+F59W+A101F [GPLM_HC] gave 3.1 nM (6 of 6 replicates; controls 1 of 18). With F27N+N30Q+R57K+A101S [Ctrl] the result was nd (0 of 6 replicates; controls 0 of 18). For F27H+K65D+S107Q [Ctrl], the assay gave nd (0 of 6 replicates; controls 0 of 18). Variant S31K+S53A+S63K+A102I+S107V [Ctrl] gave nd (0 of 6 replicates; controls 0 of 18).

Variant S31E+R56I+A101T+S107T [GPLM_Gen] gave 2.0 nM (6 of 6 replicates; controls 1 of 18). With L29R+S31D+Y32F [Ctrl] the result was nd (0 of 6 replicates; controls 0 of 18). Variant T28M+R56I+S63F [Ctrl] showed 140 nM (2 of 6 replicates; controls 0 of 18). With L29I+G61A+G99L [Ctrl] the result was nd (0 of 6 replicates; controls 0 of 18). Variant S31E+G61A+G103V+S107T [GP_HC] showed 120 pM (6 of 6 replicates; controls 0 of 18). For F27Y+S31E+F59A+G61S [GP_HC], the assay gave 3.4 nM (6 of 6 replicates; controls 0 of 18). Variant T28S+G61A+R100H+S107Q [GPLM_Gen] showed 7.2 nM (6 of 6 replicates; controls 2 of 18). With T28S+G61D+R100H [GPLM_Gen] the result was 2.8 nM (6 of 6 replicates; controls 0 of 18). Variant A101N [Ctrl] gave 76 nM (4 of 6 replicates; controls 0 of 18).

Variant T28K+G61A+A101Q [GPLM_Gen] gave 5.9 nM (6 of 6 replicates; controls 1 of 18). With S53A+R100P [Ctrl] the result was 1.1 nM (6 of 6 replicates; controls 0 of 18). Variant G26M+T28D+G61A+R100N [GP_Gen] gave 270 nM (5 of 6 replicates; controls 0 of 18). Variant F59G+S107D [Ctrl] gave nd (0 of 6 replicates; controls 0 of 18). Variant T28S+S31E+R100Q+S107M [GPLM_Gen] showed 3.3 nM (6 of 6 replicates; controls 0 of 18). Variant T28E+A101T+S107N [GPLM_Gen] gave 18 nM (6 of 6 replicates; controls 0 of 18). For G61K+A101Q [Ctrl], the assay gave 1.2 µM (5 of 6 replicates; controls 1 of 18). Variant R56S+D62P+S63E+R100K+F105D+S107P [Ctrl] gave nd (0 of 18 replicates; controls 0 of 54). Variant T28A+T104S [Ctrl] showed nd (0 of 6 replicates; controls 1 of 18).

With T28C+S31E+G61I+R100K [GP_Gibbs] the result was nd (0 of 6 replicates; controls 0 of 18). Variant R100N+D106I+S107N [Ctrl] showed nd (0 of 6 replicates; controls 1 of 18). Variant S31D+R100K+S107K [GPLM_HC] showed nd (0 of 6 replicates; controls 0 of 18). Variant S31E+R56K+K65R+A101V [Ctrl] showed 1.3 nM (6 of 6 replicates; controls 3 of 18). Variant T28G+S31E+A101T+S107A [GP_Gen] gave 830 pM (6 of 6 replicates; controls 1 of 18). Variant S31Q+Y60R+G61S+T104F [Rand] gave nd (0 of 6 replicates; controls 0 of 18). Variant S35E+G61D+R100A+A101L [Rand] gave nd (0 of 6 replicates; controls 0 of 18). For T28N+S53A+A101E [Ctrl+GP_Gen], the assay gave 630 pM (12 of 12 replicates; controls 0 of 36). With T28S+S31D+A101T+D106W [GPLM_Gen] the result was 83 nM (2 of 6 replicates; controls 0 of 18).

Variant T28S+F59A+G61A+A101Q [GP_Gibbs] showed 1.3 nM (6 of 6 replicates; controls 1 of 18). Variant S53A+S63A+A101T [GP_Gibbs] showed 1.9 nM (6 of 6 replicates; controls 0 of 18). Variant G26K+T28D+G61Q+R100K [GP_Gen] showed 1.6 nM (4 of 6 replicates; controls 0 of 18). Variant T28D+S63Q+R100N [GP_Gen] showed 1.3 nM (6 of 6 replicates; controls 0 of 18). With T28H+S31K+T104W+D106N [Rand] the result was nd (0 of 6 replicates; controls 0 of 18). For F27N+R56L+G61H [Ctrl], the assay gave 20 nM (6 of 6 replicates; controls 2 of 18). With N30S+R56K+A101T [GPLM_Gen] the result was 2.2 nM (6 of 6 replicates; controls 0 of 18).

For reference, 7 entries of the list once more:

S53A+S63A+A101T [GP_Gibbs]: 1.9 nM (6 of 6 replicates; controls 0 of 18).
S31D+R100K+S107K [GPLM_HC]: nd (0 of 6 replicates; controls 0 of 18).
T28E+A101T+S107N [GPLM_Gen]: 18 nM (6 of 6 replicates; controls 0 of 18).
T28G+S31E+A101T+S107A [GP_Gen]: 830 pM (6 of 6 replicates; controls 1 of 18).
T28N+S53A+A101E [Ctrl+GP_Gen]: 630 pM (12 of 12 replicates; controls 0 of 36).
F27N+N30Q+R57K+A101S [Ctrl]: nd (0 of 6 replicates; controls 0 of 18).
T28A+T104S [Ctrl]: nd (0 of 6 replicates; controls 1 of 18).